Values of other authors as cited in PMC7990704 (Nature chemical biology, 2021).

Test system: Cdk1
Conditions: cited from earlier work

Structure (SMILES): CCN1CCN(Cc2ccc(Nc3ncc(F)c(-c4cc(F)c5nc(C)n(C(C)C)c5c4)n3)nc2)CC1 [abemaciclib]
- activity against Cdk1 in vitro: lacking potent activity
